The list shows a part of the results, in another mix than the full data. The source made the active and inactive calls. Cut-off read from the data, not from the text of the source: active = inhibition mostly above about 56% (no sharp cut-off); inactive = mostly below about 77%.
target: Salicylate synthase (Mycobacterium tuberculosis (strain CDC 1551 / Oshkosh)) (UniProt P9WFX0); assay: MbtI salicylate synthase inhibitors, primary screen, biochemical, fluorescence intensity (AID 493033); details: purified MbtI enzyme, fluorescence intensity read-out; active compounds read high; concentration not given here

By UniProt entry, the sequences of proteins in these tests, tags left out.
UniProt P9WFX0, whole entry: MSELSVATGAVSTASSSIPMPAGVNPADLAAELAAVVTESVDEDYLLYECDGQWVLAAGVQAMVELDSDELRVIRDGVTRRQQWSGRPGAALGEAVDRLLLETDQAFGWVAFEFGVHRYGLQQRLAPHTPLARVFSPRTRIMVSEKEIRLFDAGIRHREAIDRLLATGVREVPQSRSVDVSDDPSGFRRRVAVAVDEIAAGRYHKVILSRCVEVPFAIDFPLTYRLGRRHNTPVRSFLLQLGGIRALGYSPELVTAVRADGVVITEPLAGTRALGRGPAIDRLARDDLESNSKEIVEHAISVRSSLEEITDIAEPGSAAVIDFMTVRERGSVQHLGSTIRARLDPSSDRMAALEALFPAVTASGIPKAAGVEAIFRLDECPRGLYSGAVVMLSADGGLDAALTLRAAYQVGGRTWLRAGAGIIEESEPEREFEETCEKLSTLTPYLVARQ

Compound | inhibition
CN(CCCl)CCCl | inactive: -20.6%

— PubChem BioAssay AID493033 (ICCB-Longwood Screening Facility, Harvard Medical School, 2011)
